Values belong to the molecule of their own block, whether it stands above or below them. Active and inactive are the calls of the source. The rule behind the calls is not given here.
How the values were obtained:
Format in all cases: cell-based
[1] = molecular target: Microtubule-associated protein 1 light chain 3 beta/Histone-lysine N-methyltransferase EZH1 (Homo sapiens) (UniProt Q92800+Q9GZQ8); test: ATTEC activity at LC3B/EZH1 in human U2932 cells assessed as EZH1 degradation at 10 uM incubated for 48 hrs by immunoblotting analysis
[2] = molecular target: Microtubule-associated protein 1 light chain 3 beta/Histone-lysine N-methyltransferase EZH2 (Homo sapiens) (UniProt Q15910+Q9GZQ8); test: ATTEC activity at LC3B/EZH2 in human U2932 cells assessed as EZH2 degradation at 10 uM incubated for 48 hrs by immunoblotting analysis
[3] = molecular target: Microtubule-associated protein 1 light chain 3 beta/Polycomb protein EED (Homo sapiens) (UniProt O75530+Q9GZQ8); test: ATTEC activity at LC3B/EED in human U2932 cells assessed as EED degradation at 10 uM incubated for 48 hrs by immunoblotting analysis
[4] = molecular target: Microtubule-associated protein 1 light chain 3 beta/Polycomb protein SUZ12 (Homo sapiens) (UniProt Q15022+Q9GZQ8); test: ATTEC activity at LC3B/SUZ12 in human U2932 cells assessed as SUZ12 degradation at 10 uM incubated for 48 hrs by immunoblotting analysis
[5] = molecular target: T1, Microtubule-associated protein 1 light chain 3 beta/Cyclin-T1/Cyclin-dependent kinase 9 (Homo sapiens) (UniProt O60563+P50750+Q9GZQ8); test: ATTEC activity at LC3B/CDK9/Cyclin T1 in human WSUDLCL2 cells assessed as degradation of Cyclin T1 at 100 nM incubated for 24 hrs by immunoblot analysis
[6] = molecular target: T1, Microtubule-associated protein 1 light chain 3 beta/Cyclin-T1/Cyclin-dependent kinase 9 (Homo sapiens); test: ATTEC activity at LC3B/CDK9/Cyclin T1 in human WSUDLCL2 cells assessed as downregulation of Mcl-1 expression at 100 nM incubated for 24 hrs by immunoblotting analysis
[7] = molecular target: Microtubule-associated protein 1 light chain 3 beta/Cyclin-dependent kinase 9 (Homo sapiens) (UniProt P50750+Q9GZQ8); test: ATTEC activity at LC3B/CDK9 in human WSUDLCL2 cells assessed as degradation of CDK9 at 1 uM incubated for 24 hrs by immunoblot analysis
[8] = molecular target: T1, Microtubule-associated protein 1 light chain 3 beta/Cyclin-T1/Cyclin-dependent kinase 9 (Homo sapiens); test: ATTEC activity at LC3B/CDK9/Cyclin T1 in LC3B knockout HEK293T cells assessed as degradation of CDK9 at 50 nM incubated for 24 hrs by immunoblotting analysis
[9] = molecular target: T1, Microtubule-associated protein 1 light chain 3 beta/Cyclin-T1/Cyclin-dependent kinase 9 (Homo sapiens); test: ATTEC activity at LC3B/CDK9/Cyclin T1 in human WSUDLCL2 cells assessed as CDK9 degradation at 50 nM preincubated with bafilomycin A1 followed by compound addition measured after 24 hrs by immunoblotting analysis
[10] = molecular target: T1, Microtubule-associated protein 1 light chain 3 beta/Cyclin-T1/Cyclin-dependent kinase 9 (Homo sapiens); test: ATTEC activity at LC3B/CDK9/Cyclin T1 in human WSUDLCL2 cells assessed as CDK9 degradation at 50 nM preincubated with MG132 followed by compound addition measured after 24 hrs by immunoblotting analysis
[11] = molecular target: Polycomb protein EED (Homo sapiens) (UniProt O75530); test: Induction of EED degradation in human U2932 cells at 10 uM incubated for 48 hrs by immunoblotting analysis
[12] = test system: U2932; test: Induction of EZH1 degradation in human U2932 cells at 10 uM incubated for 48 hrs by immunoblotting analysis
[13] = test system: U2932; test: Induction of EZH2 degradation in human U2932 cells at 10 uM incubated for 48 hrs by immunoblotting analysis
[14] = molecular target: T1, Microtubule-associated protein 1 light chain 3 beta/Cyclin-T1/Cyclin-dependent kinase 9 (Homo sapiens); test: ATTEC activity at LC3B/CDK9/Cyclin T1 in human WSUDLCL2 cells assessed as degradation of CDK9 at 100 nM incubated for 24 hrs by immunoblotting analysis

Sequences of proteins named here, by UniProt entry; tags and fusion partners are left off. A change or cut given only in a name is not applied to a line headed by its entry.
UniProt Q92800, whole entry, looked up: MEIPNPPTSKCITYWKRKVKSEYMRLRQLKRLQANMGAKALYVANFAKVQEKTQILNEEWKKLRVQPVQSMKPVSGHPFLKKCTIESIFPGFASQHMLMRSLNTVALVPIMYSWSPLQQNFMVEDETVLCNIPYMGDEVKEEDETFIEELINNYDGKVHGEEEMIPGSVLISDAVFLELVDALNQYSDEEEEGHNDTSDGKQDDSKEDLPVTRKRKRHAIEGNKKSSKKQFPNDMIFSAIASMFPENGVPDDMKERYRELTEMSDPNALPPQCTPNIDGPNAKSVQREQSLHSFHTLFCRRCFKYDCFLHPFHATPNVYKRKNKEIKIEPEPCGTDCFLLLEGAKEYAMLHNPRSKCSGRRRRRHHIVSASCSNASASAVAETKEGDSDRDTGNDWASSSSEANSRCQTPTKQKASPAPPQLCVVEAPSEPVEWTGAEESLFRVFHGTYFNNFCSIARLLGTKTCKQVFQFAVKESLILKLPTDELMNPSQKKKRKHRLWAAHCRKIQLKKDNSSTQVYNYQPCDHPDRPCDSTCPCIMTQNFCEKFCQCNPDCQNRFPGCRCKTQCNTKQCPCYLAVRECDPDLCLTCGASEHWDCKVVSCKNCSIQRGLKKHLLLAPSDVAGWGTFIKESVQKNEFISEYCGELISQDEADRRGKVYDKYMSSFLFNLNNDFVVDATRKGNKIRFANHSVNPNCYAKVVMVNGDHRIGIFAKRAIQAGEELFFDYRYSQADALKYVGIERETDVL
UniProt Q15910, whole entry, looked up: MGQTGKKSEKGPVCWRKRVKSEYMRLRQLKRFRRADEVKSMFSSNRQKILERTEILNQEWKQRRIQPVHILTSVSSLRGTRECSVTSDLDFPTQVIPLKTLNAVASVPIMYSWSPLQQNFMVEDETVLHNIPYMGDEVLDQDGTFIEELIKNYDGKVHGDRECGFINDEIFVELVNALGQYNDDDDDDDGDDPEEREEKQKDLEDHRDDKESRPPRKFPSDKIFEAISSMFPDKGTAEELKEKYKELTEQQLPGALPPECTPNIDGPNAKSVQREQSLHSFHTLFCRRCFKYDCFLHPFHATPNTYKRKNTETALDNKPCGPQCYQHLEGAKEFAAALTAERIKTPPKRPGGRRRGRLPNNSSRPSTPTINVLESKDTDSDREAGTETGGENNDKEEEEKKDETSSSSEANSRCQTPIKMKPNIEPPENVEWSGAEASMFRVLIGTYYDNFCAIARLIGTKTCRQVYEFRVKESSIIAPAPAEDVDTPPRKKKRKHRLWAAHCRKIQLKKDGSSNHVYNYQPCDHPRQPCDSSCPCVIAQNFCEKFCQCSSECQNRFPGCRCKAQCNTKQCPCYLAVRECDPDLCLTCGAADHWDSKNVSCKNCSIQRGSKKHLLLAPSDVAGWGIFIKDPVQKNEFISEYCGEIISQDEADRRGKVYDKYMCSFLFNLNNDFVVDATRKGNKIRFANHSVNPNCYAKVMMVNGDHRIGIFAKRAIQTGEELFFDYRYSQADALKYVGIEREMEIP
UniProt O75530, whole entry, looked up: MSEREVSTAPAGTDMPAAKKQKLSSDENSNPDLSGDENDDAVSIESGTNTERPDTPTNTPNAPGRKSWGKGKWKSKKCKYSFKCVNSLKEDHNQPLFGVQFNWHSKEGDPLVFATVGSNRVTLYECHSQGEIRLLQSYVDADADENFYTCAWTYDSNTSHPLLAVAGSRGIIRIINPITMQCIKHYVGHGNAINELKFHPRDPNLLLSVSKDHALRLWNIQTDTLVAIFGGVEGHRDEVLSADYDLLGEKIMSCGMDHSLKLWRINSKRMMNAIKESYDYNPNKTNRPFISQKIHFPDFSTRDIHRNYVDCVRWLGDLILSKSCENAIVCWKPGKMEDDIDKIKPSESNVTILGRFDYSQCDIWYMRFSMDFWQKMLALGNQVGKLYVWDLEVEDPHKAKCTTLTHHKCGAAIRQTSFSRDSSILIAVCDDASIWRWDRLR
UniProt Q15022: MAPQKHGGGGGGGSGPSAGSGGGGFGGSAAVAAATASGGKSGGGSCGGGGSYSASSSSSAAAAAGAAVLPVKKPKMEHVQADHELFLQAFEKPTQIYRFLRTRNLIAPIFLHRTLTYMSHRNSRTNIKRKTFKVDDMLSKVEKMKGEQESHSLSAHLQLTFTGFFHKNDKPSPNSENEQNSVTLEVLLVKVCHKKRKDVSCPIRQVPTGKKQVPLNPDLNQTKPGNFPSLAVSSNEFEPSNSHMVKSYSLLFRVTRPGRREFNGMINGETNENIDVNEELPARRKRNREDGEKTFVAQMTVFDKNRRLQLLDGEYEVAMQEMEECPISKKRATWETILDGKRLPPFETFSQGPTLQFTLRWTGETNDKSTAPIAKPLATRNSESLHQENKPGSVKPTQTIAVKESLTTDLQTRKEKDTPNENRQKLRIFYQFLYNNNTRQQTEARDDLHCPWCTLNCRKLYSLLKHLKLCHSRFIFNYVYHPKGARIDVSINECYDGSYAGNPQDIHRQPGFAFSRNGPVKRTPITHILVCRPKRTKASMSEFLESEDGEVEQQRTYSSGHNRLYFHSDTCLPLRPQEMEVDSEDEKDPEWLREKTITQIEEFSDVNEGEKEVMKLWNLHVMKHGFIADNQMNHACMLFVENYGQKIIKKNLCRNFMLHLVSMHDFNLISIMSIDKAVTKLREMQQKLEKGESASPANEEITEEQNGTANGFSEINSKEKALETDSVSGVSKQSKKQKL
UniProt O60563, whole entry, looked up: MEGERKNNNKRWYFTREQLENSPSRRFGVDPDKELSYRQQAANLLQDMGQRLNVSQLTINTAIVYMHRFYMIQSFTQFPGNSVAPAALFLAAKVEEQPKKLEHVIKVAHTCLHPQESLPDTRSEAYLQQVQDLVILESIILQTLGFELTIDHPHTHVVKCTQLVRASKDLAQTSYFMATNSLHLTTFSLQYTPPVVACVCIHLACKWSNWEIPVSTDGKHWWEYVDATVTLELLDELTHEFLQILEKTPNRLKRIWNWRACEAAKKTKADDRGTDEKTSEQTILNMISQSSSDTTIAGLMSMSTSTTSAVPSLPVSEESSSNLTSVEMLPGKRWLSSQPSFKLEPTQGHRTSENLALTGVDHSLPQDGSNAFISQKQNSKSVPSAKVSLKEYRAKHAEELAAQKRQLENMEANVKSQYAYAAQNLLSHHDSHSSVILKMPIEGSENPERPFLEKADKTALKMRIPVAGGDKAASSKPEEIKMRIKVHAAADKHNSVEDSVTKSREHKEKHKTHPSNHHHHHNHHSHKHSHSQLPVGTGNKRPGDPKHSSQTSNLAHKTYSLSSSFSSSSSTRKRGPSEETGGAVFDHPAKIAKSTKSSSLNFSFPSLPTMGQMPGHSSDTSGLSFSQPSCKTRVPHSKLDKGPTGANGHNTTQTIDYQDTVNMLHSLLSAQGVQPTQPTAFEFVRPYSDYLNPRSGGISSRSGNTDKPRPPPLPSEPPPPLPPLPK
UniProt P50750, whole entry, looked up: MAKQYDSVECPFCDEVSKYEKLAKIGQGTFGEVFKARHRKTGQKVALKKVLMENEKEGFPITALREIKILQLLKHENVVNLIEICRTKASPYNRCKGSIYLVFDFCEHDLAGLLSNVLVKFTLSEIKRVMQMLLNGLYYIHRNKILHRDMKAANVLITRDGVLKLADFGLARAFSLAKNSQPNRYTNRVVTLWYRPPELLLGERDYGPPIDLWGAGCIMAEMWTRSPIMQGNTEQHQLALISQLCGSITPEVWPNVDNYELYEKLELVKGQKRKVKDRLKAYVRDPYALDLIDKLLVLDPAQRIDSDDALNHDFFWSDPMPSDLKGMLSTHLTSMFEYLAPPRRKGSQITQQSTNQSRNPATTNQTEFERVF

Compound: CCn1c(=O)c2ccc(Cl)cc2n(CCOCCOCCN2CCN(c3ccc(-c4cc(C(=O)NCc5c(C)cc(C)[nH]c5=O)c5cnn(C(C)C)c5c4)cn3)CC2)c1=O
- Activity [1]: Active
- Activity [2]: Active
- Activity [3]: Active
- Activity [4]: Active

Compound: CC(C)(C)c1cnc(CSc2cnc(NC(=O)C3CCN(CCn4c(=O)n(Cc5ccccc5)c(=O)c5ccc(Cl)cc54)CC3)s2)o1
- Activity [7]: Active

Compound: CCn1c(=O)c2cccnc2n(CCCN2CCC(C(=O)Nc3ncc(SCc4ncc(C(C)(C)C)o4)s3)CC2)c1=O
- Activity [5]: Active
- Activity [6]: Active

Compound: CCn1c(=O)c2ccc(Cl)cc2n(CCCN2CCC(C(=O)Nc3ncc(SCc4ncc(C(C)(C)C)o4)s3)CC2)c1=O
- Activity [5]: Active
- Activity [6]: Active
- Activity [8]: inactive
- Activity [9]: Active; Degradation Of Cdk9 Is Partially Rescued
- Activity [10]: Active

Compound: Cc1cc(C)c(CNC(=O)c2cc(-c3ccc(N4CCN(CCNC(=O)CCOCCNc5cccc6c5C(=O)N(C5CCC(=O)NC5=O)C6=O)CC4)nc3)cc3c2cnn3C(C)C)c(=O)[nH]1 (configuration not stated)
- Activity [11]: inactive
- Activity [12]: inactive
- Activity [13]: Active

Compound: CC(C)(C)c1cnc(CSc2cnc(NC(=O)C3CCN(CC(=O)NCCOCCOCCOCCNc4cccc5c4C(=O)N(C4CCC(=O)NC4=O)C5=O)CC3)s2)o1 (configuration not stated)
- Activity [5]: Active; Compound Exhibited Slight Degradation
- Activity [6]: Active; Compound Exhibited Slight Downregulation
- Activity [14]: Active; Compound Exhibited Dramatic Degradation

The next lines start with results.

- Activity [5]: Active
- Activity [6]: Active
Compound: CC(C)(C)c1cnc(CSc2cnc(NC(=O)C3CCN(CCCn4c(=O)n(Cc5ccncc5)c(=O)c5cccnc54)CC3)s2)o1

- Activity [5]: Active
- Activity [6]: Active
- Activity [8]: inactive
- Activity [10]: Active
Compound: CC(C)(C)c1cnc(CSc2cnc(NC(=O)C3CCN(CCCn4c(=O)n(Cc5ccncc5)c(=O)c5ccc(Cl)cc54)CC3)s2)o1
- Activity [9]: Active; Degradation Of Cdk9 Is Partially Rescued

- Activity [5]: Active
- Activity [6]: Active
Compound: CC(C)(C)c1cnc(CSc2cnc(NC(=O)C3CCN(CCCn4c(=O)n(Cc5ccccc5)c(=O)c5cccnc54)CC3)s2)o1
